## Apparent affinities of Ab-14 variants for a coronavirus HR2 peptide

Target: peptide PDVDLGDISGINAS, taken from heptad repeat 2 (HR2) of SARS-CoV-2 spike.

Ab-14 is the parent antibody, in scFv form: VH, then a 15-residue (Gly4Ser)3 linker, then VL. The light chain is unchanged in all variants.
VH: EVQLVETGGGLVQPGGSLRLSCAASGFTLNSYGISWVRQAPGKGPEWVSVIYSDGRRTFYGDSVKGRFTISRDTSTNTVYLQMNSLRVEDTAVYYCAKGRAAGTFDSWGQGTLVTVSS
VL: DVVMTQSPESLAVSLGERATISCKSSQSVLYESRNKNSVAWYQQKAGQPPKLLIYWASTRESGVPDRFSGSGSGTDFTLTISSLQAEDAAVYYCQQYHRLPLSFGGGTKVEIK

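Phage display of a naive human antibody library on the peptide gave the parent. This is the validation round: designs drawn from the data on random variants, tested in the same kind of assay. Their group label is 14H_GP_Gen (GP: Gaussian process model; Gen: genetic algorithm; a sequence that several methods proposed may carry one label only). The scFvs were displayed on barcoded MATa yeast, the peptide on MATalpha yeast. The frequency of each diploid, read from paired DNA barcodes, reflects how well the two displayed proteins bind. Scores were corrected for input abundance and mapped to Kd with protein pairs of known affinity run in the same pool. The assay was run in six technical replicates.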

Changes read parent residue, position, new residue, counted from the first residue of the VH shown.
Affinities are written as log10 Kd with Kd in nM; a lower number is a better binder.
The mean shown is taken over the replicates in which the pair was detected.
"nd" means that the variant was in the library but no mating with the target was seen in that replicate; the authors take this as a sign of poor binding, and no number exists.
Of ten entries with the parent sequence, four were seen in most replicates (averages 0.34 to 2.37), three in one and three in none, so single entries are noisy.

{"changes": "T28D+S63M+A101E", "replicates, log10 nM": "0.45 / -0.01 / 0.44 / 0.27 / -0.05 / 0.04", "mean log10 Kd (nM)": "0.19", "signal with controls": "0/18"}
{"changes": "T28E+S31T+R100Q", "replicates, log10 nM": "0.86 / 1.22 / 1.12 / 2.84 / 0.31 / 2.30", "mean log10 Kd (nM)": "1.44", "signal with controls": "0/18"}
{"changes": "G26K+T28E+S53A+R100Q", "replicates, log10 nM": "nd / 1.86 / 1.33 / 0.83 / 0.91 / 0.26", "mean log10 Kd (nM)": "1.04", "signal with controls": "0/18"}
{"changes": "S31E+A101Q+S107A", "replicates, log10 nM": "1.70 / 1.14 / nd / 1.11 / 3.19 / 1.88", "mean log10 Kd (nM)": "1.81", "signal with controls": "0/18"}
{"changes": "G26M+T28D+G61H+A101T", "replicates, log10 nM": "0.95 / 0.62 / 0.98 / 0.47 / 0.89 / 0.15", "mean log10 Kd (nM)": "0.68", "signal with controls": "0/18"}
{"changes": "T28S+S63N+A101M", "replicates, log10 nM": "1.36 / 0.42 / 0.30 / 0.80 / 0.44 / 1.01", "mean log10 Kd (nM)": "0.72", "signal with controls": "0/18"}
{"changes": "T28S+F59A+G61C", "replicates, log10 nM": "0.39 / 0.92 / 0.36 / 0.84 / -0.05 / 0.27", "mean log10 Kd (nM)": "0.45", "signal with controls": "0/18"}
{"changes": "T28D+G61V+R100K+A101Q", "replicates, log10 nM": "2.06 / 0.45 / 0.42 / 0.69 / 1.00 / 1.46", "mean log10 Kd (nM)": "1.01", "signal with controls": "0/18"}
{"changes": "T28N+S63Q+A101I", "replicates, log10 nM": "1.25 / 0.88 / 0.81 / 0.96 / 1.33 / 1.09", "mean log10 Kd (nM)": "1.06", "signal with controls": "1/18 (1.68)"}
{"changes": "T28S+R100N+S107D", "replicates, log10 nM": "1.38 / 1.29 / 1.47 / 1.67 / 1.75 / 2.94", "mean log10 Kd (nM)": "1.75", "signal with controls": "0/18"}
{"changes": "T28E+R100M+A101T+S107T", "replicates, log10 nM": "0.45 / -0.03 / -0.38 / -0.14 / 0.19 / -0.12", "mean log10 Kd (nM)": "-0.01", "signal with controls": "0/18"}
{"changes": "T28D+G61H+R100Q+A101E", "replicates, log10 nM": "0.27 / -0.19 / 0.14 / 0.05 / 0.14 / -0.13", "mean log10 Kd (nM)": "0.05", "signal with controls": "1/18 (2.82)"}
{"changes": "T28S+S31E+S63A+R100K", "replicates, log10 nM": "1.92 / 1.02 / 1.51 / 0.52 / 0.58 / 1.33", "mean log10 Kd (nM)": "1.15", "signal with controls": "0/18"}
{"changes": "T28E+S31E+G61D+R100K", "replicates, log10 nM": "0.14 / -0.06 / 0.11 / 0.35 / -0.24 / -0.34", "mean log10 Kd (nM)": "-0.01", "signal with controls": "1/18 (0.75)"}
{"changes": "T28E+S53A+R100A", "replicates, log10 nM": "0.32 / 0.06 / 0.11 / -0.09 / -0.14 / 0.34", "mean log10 Kd (nM)": "0.10", "signal with controls": "0/18"}
{"changes": "F27K+S53A+R56K", "replicates, log10 nM": "nd / -0.06 / 0.41 / -0.77 / -0.78 / -0.61", "mean log10 Kd (nM)": "-0.36", "signal with controls": "0/18"}
{"changes": "R56K+G61S+R100K+A101T", "replicates, log10 nM": "0.75 / -0.37 / -0.51 / -0.02 / -0.01 / 0.41", "mean log10 Kd (nM)": "0.04", "signal with controls": "1/18 (0.93)"}
{"changes": "T28W+S31E+G61D+R100K", "replicates, log10 nM": "0.86 / 0.65 / 1.02 / 0.75 / 0.91 / 0.69", "mean log10 Kd (nM)": "0.81", "signal with controls": "1/18 (3.81)"}
{"changes": "T28N+G61L+R100N", "replicates, log10 nM": "0.17 / 0.11 / 0.05 / -0.12 / 0.08 / 0.27", "mean log10 Kd (nM)": "0.09", "signal with controls": "3/18 (3.30)"}
{"changes": "T28D+R100K+A101T+S107N", "replicates, log10 nM": "0.16 / 0.74 / 0.02 / -0.39 / 0.25 / -0.04", "mean log10 Kd (nM)": "0.12", "signal with controls": "0/18"}
{"changes": "T28S+G61Q+S63D+R100Q", "replicates, log10 nM": "0.72 / 1.42 / 1.01 / 0.39 / 0.91 / 1.13", "mean log10 Kd (nM)": "0.93", "signal with controls": "1/18 (1.25)"}
{"changes": "T28S+G61Q+R100E+S107T", "replicates, log10 nM": "-0.05 / 0.37 / 0.21 / 0.32 / 0.35 / 0.07", "mean log10 Kd (nM)": "0.21", "signal with controls": "0/18"}
{"changes": "T28E+S31E+S63A+R100K+A101T", "replicates, log10 nM": "nd / 1.29 / 0.36 / nd / 0.29 / nd", "mean log10 Kd (nM)": "0.65", "signal with controls": "0/18"}
{"changes": "T28E+S53A+G61A+R100K", "replicates, log10 nM": "-0.99 / -0.08 / -0.93 / -0.78 / -1.29 / -0.38", "mean log10 Kd (nM)": "-0.74", "signal with controls": "0/18"}
{"changes": "G26K+T28D+R100K+A101E", "replicates, log10 nM": "1.17 / 0.78 / 1.32 / 1.44 / 1.38 / 1.54", "mean log10 Kd (nM)": "1.27", "signal with controls": "0/18"}
{"changes": "T28N+A101T+S107Q", "replicates, log10 nM": "1.02 / 1.31 / 0.94 / 0.82 / 0.87 / 0.76", "mean log10 Kd (nM)": "0.95", "signal with controls": "1/18 (2.15)"}
{"changes": "T28D+G61V+A101S", "replicates, log10 nM": "nd / 1.27 / nd / nd / nd / nd", "mean log10 Kd (nM)": "1.27", "signal with controls": "0/18"}
{"changes": "T28Q+S31E+R56Q+A101T", "replicates, log10 nM": "nd / 2.87 / nd / nd / 3.91 / 3.01", "mean log10 Kd (nM)": "3.26", "signal with controls": "0/18"}
{"changes": "T28D+S31E+R56K+A101T", "replicates, log10 nM": "nd / nd / nd / nd / nd / nd", "mean log10 Kd (nM)": "nd", "signal with controls": "0/18"}
{"changes": "T28S+S31D+G61A+A101M", "replicates, log10 nM": "-0.24 / -0.26 / -0.14 / -0.12 / -0.08 / -0.14", "mean log10 Kd (nM)": "-0.16", "signal with controls": "0/18"}

In the paper, a design with two or fewer of six values counts as a poor binder.
The range of this assay differs from that of the first round, and the authors advise against merging the two.
Nonspecific signal, from three strains lacking the peptide, appeared in 1% of pairings of all heavy chain designs, centred on 2.08 (5% of these signals below 0.84); values are not corrected for it. Also given: how often the same scFv was detected with the empty control strains, with their mean in brackets.

Data: MIT Lincoln Laboratory AlphaSeq set, Li et al. 2023, doi:10.1038/s41467-023-39022-2, as distributed in FLAb.